This is an account of results in ChEMBL document CHEMBL1128729, “Alpha- and beta-adrenoceptors: from the gene to the clinic. 2. Structure-activity relationships and therapeutic applications” (J Med Chem, 1995).

Amino acid sequences for entries named in this document (tags omitted). A change or cut given only in a name is not applied to a line headed by its entry.
UniProt P15823: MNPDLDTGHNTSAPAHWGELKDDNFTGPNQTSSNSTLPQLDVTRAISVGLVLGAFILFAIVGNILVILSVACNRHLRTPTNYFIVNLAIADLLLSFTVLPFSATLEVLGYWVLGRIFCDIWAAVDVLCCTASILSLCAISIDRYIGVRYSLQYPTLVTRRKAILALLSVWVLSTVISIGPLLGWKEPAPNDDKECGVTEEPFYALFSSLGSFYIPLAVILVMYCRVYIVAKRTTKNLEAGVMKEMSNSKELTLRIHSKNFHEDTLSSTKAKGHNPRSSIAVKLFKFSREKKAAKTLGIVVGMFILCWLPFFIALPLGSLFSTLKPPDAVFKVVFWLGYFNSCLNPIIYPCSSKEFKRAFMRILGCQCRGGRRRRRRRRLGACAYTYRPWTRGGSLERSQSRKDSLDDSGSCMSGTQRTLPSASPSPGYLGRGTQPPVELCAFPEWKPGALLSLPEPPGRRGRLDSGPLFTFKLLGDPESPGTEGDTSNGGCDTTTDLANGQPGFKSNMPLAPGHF
UniProt P23944: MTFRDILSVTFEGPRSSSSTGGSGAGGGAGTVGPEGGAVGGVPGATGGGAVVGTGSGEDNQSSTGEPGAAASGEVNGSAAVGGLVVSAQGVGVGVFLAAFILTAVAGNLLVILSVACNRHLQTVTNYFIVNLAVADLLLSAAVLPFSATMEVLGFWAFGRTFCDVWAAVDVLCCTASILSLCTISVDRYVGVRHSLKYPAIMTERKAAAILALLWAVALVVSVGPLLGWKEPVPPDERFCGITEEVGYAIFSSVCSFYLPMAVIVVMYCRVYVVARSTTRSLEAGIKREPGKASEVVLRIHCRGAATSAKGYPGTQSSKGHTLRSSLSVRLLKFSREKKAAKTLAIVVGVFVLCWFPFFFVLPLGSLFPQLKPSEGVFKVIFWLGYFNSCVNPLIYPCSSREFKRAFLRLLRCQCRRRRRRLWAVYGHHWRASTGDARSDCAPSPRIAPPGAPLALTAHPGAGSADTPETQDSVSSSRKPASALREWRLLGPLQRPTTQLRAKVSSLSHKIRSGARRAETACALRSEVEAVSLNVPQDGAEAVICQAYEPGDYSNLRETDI
UniProt P43140: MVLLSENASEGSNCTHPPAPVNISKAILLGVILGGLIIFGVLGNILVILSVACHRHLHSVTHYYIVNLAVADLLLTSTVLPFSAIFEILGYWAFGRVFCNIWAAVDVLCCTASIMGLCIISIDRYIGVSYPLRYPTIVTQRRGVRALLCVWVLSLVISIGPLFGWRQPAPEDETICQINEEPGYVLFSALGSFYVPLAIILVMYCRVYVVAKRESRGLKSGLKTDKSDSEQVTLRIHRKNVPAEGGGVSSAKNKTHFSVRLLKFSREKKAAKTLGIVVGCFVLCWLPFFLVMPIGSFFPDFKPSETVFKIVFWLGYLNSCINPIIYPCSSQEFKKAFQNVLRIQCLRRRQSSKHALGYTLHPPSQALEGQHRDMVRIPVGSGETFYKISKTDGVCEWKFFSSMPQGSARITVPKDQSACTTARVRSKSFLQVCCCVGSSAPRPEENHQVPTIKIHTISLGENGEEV

Structures are written as SMILES. Where only a bound is given, the exact number is not on record here.

The test addresses Adrenergic receptor alpha-1 (Rattus norvegicus, UniProt P15823+P23944+P43140). In words: Effective dose for contraction of reserpine-pretreated rat vas deferens. The format is functional.

The term EC50 denotes the concentration that produces a half-maximal response. For the molecule `CNC[C@H](O)c1ccc(O)c(O)c1` (stereo in doubt; (+)) [EPINEPHRINE], the EC50 is greater than 100 µM.

For the molecule `CNC[C@H](O)c1ccc(O)c(O)c1` (stereo in doubt; (-)) [EPINEPHRINE], the EC50 is 4.073 µM.
